{
  "source": "patent US20100124537A1",
  "about": "“MEDICAL APPLICATIONS OF ALPHA-KETOGLUTARATE” (priority 2007, published 2010)",
  "system": "H. pylori, strain 119/95",
  "details": "animals inoculated with PBS and salts of alpha-ketoglutaric acid (Group II A)",
  "data": [
    {"smiles": "O=C(O)CCC(=O)C(=O)O", "note": "[AKG, alpha-ketoglutarate]", "values": [
      {"measurement": "H. pylori isolated from tissue", "result": "no isolated H. pylori"}
    ]}
  ]
}
